# Experimental data as given in PubChem BioAssay AID759 (NMMLSC, 2007).
# By UniProt entry, the sequences of proteins in these tests, tags left out.
# UniProt P01112, whole entry: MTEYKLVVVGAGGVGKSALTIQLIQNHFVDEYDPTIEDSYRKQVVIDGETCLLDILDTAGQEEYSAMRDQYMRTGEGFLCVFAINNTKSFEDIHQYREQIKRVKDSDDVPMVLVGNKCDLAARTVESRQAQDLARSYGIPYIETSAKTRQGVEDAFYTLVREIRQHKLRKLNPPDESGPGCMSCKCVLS
# The list shows a part of the results, in another mix than the full data. The source made the active and inactive calls.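 Rule for the calls: active = GTP binding activity at least 20% away from the 100% baseline, either lowered as inhibitor or raised as activator; inconclusive = flagged as likely green fluorescent, judged across all proteins in the well; inactive = the rest.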
# Target: GTPase HRas (Homo sapiens) (UniProt P01112)
# Assay: HRas wt fluorescent GTP binding changes, either direction – biochemical, wildtype, bead-based flow cytometry, multiplex, primary screen (AID 759);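 note: 0% = unlabeled GTP competition control and 100% = no-compound control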
# Settings: GST-Ras wt beads, Bodipy-FL-GTP binding, at 10 µM, actives lie on both sides
row,Structure (SMILES),GTP binding activity
1,COc1ccc(C(=O)NCC2(N3CCOCC3)CCCCC2)cc1OC,inactive: 98%
2,O=C(OC1CN2CCC1CC2)C1c2ccccc2C=Cc2ccccc21 (centres undefined),inactive: 102%
3,N/C(=N\O)c1c(N)no[n+]1[O-],inactive: 102%
4,N#Cc1ccc(C(=O)NCC2(N3CCCCC3)CCCCC2)cc1,inactive: 100%
5,c1ccc(CN2CCC(Nc3ccccc3)CC2)cc1,inactive: 99%
6,Fc1ccccc1NC1CCN(Cc2ccccc2)CC1,inactive: 104%
7,CN(C)c1ccc(C(=O)NCC2(N3CCCCC3)CCCCC2)cc1,inactive: 101%
8,CCN1CCC(Nc2cccc(F)c2)CC1,inactive: 100%
9,CC(C)(C)OC(=O)N1CCC(Nc2ccccc2)CC1,inactive: 100%
10,CCOc1ncccc1C(=O)NCC1(N2CCOCC2)CCCCC1,inactive: 100%
11,COc1cc(OC)cc(C(=O)NCC2(N3CCOCC3)CCCCC2)c1,inactive: 92%
12,COc1ccc(C(=O)NCC2(N3CCCCC3)CCCCC2)c(OC)c1OC,inactive: 98%
13,CCOC(=O)N1CCC(Nc2ccc(OC)cc2)CC1,inactive: 100%
14,O=C(OC1CN2CCC1CC2)C1c2ccccc2Oc2ccccc21 (centres undefined),inactive: 101%
15,O=C(NCC1(N2CCOCC2)CCCCC1)c1cc2ccccc2o1,inactive: 101%
16,COc1ccc(NC2CCN(CCc3ccccc3)CC2)c(OC)c1,inactive: 99%
17,O=C(NCC1(N2CCCCC2)CCCCC1)c1cccc([N+](=O)[O-])c1,inactive: 97%
18,N#CC1(Nc2ccccc2)CCN(CCc2ccccc2)CC1,inactive: 108%
19,CN1CCN(CCOC(=O)C(O)(c2ccccc2)c2ccccc2)CC1,inactive: 102%
20,COc1ccc(NC2CCN(C(=O)OC(C)(C)C)CC2)cc1,inactive: 100%
21,O=C(NCC1(N2CCOCC2)CCCCC1)c1cc(=O)[nH]c2ccccc12,inactive: 99%
22,COc1ccc(CN(CCCl)CCCl)cc1Cl,inactive: 95%
23,CN(C)c1cccc(C(=O)NCC2(N3CCCCC3)CCCCC2)c1,inactive: 99%
24,CC(C)c1ccc(NC2CCN(C(=O)OC(C)(C)C)CC2)cc1,inactive: 95%
